Test results as given in patent US20060040884A1, “Antisense oligonucleotides directed to genes regulated by trapoxin-induced HDAC inhibition” (priority 2001, published 2006).
Square brackets hold non-standard residues; d marks the D form. Peptide text beside a SMILES is read from it. ξ: configuration not given here. Aoe(9ξ) = N[C@@H](CCCCCC(=O)C1CO1)C(=O)O; dPip = O=C(O)[C@H]1CCCCN1

System: RhoB promoter
Assay: RhoB promoter luciferase reporter assay in transfected H1299 cells treated with TPX
Conditions: 30 nM TPX vs 0.1% DMSO, 24 h

O=C(CCCCC[C@@H]1NC(=O)[C@H]2CCCCN2C(=O)[C@H](Cc2ccccc2)NC(=O)[C@H](Cc2ccccc2)NC1=O)C1CO1 (stereo partly shown) [TPX, Trapoxin A] (cyclo(FF[dPip][Aoe(9ξ)]))
Response of RhoB promoter with inverted CCAAT box mutated to 5′-TTTAG-3′: dramatically reduced to the promoterless vector control level
